How the values were obtained:
Type in all cases: cell-based
rat AT1aR [1] = molecular target: T1, rat AT1aR (Rattus norvegicus, UniProt P25095); experiment: PathHunter β-arrestin-2 recruitment assay, rat AT1aR; settings: PathHunter β-arrestin HEK293 cells; inactive = EC50 greater than 10 uM; read-out: rat AT1aR b-arrestin2 EC50
Method: (§1) The proximal event in β-arrestin function mediated by GPCRs is recruitment to receptors following ligand binding and receptor phosphorylation by GRK's. Thus, the measure of β-arrestin recruitment was used to determine ligand efficacy for β-arrestin function.
(§2) B-arrestin-2 recruitment to the human and rat angiotensin 2 type 1 receptor (human AT1R and rat AT1aR, respectively) was measured with the PathHunter™ β-arrestin assay (DiscoveRx Corporation, Fremont Calif.). Cells, plasmid(s), and detection reagent(s) were purchased from DiscoveRx, and assays were performed per the manufacturer's instructions. Human AT1R and rat AT1aR were cloned into the pCMV-ProLink vector, verified by sequencing, and transfected into PathHunter β-arrestin HEK293 cells. Stably transfected clonal cell lines were selected with Hygromycin and G418. These clonal cell lines were used for all experiments.
(§3) For assays, 25,000 cells were seeded per well in 96-well microplates in volumes of 90 μL and allowed to grow overnight at 37° C. in 5% CO2. Peptides provided herein were dissolved in deionized water to a concentration of 1 mM. Peptides were then further diluted in assay buffer (Hank's balanced salt solution with 20 mM HEPES) to add peptide to the cells to reach final concentrations ranging from 10 μM to 1 pM. Cells were then incubated for 60 minutes at 37° C. in 5% CO2, followed by the addition of 50 μL of PathHunter Detection Reagent to each well. The microplates were then incubated at room temperature for 60 minutes, and then luminescence was measured using a NOVOstar microplate reader purchased from BMG Labtech. B-arrestin-2 recruitment to receptors was measured as relative luminescence intensity expressed in arbitrary units.

The chains behind the UniProt entries cited, without tags or fusion partners.
UniProt P25095, whole entry: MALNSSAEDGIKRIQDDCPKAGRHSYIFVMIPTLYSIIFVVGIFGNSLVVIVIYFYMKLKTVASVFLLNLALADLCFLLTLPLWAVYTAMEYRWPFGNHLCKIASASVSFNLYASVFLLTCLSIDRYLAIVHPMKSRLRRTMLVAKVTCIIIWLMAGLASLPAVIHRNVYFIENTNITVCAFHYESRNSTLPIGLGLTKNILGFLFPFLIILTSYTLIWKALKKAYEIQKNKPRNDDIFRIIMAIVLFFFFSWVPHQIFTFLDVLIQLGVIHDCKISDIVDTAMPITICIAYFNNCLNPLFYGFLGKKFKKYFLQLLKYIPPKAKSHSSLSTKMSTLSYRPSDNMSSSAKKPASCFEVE

human AT1R = human AT1R (Homo sapiens, UniProt P30556); experiment: PathHunter β-arrestin-2 recruitment assay, human AT1R; settings: PathHunter β-arrestin HEK293 cells; inactive = EC50 greater than 10 uM; read-out: human AT1R b-arrestin2 EC50
Method: as §1, §2, §3

rat AT1aR [2] = molecular target: T1, rat AT1aR; experiment: IP1 accumulation assay (IP-One Tb), rat AT1aR; settings: agonist detection, inactive = EC50 greater than 10 uM

Compound | EC50 (rat AT1aR [1]) [nM] | EC50 (human AT1R) [nM] | EC50 (rat AT1aR [2]) [nM]
CNCC(=O)N[C@@H](CCCNC(=N)N)C(=O)N[C@H](C(=O)NCC(=O)N[C@H](C(=O)N[C@@H](Cc1c[nH]cn1)C(=O)N1CCC[C@H]1C(=O)NCC(=O)O)C(C)C)C(C)C [SEQ ID NO: 5, Sar-Arg-Val-Gly-Val-His-Pro-Gly-OH] | 1900 | 1600 | 
CC(C)[C@H](NC(=O)[C@H](CCCNC(=N)N)NC(=O)CN(C)C)C(=O)N[C@@H](Cc1ccc(O)cc1)C(=O)N[C@H](C(=O)N[C@@H](Cc1c[nH]cn1)C(=O)N1CCC[C@H]1C(=O)N[C@@H](C)C(=O)O)C(C)C [SEQ ID NO: 31, Me2G-Arg-Val-Tyr-Val-His-Pro-Ala-OH] |  |  | 13
CC[C@H](C)[C@@H]1NC(=O)[C@H](Cc2ccc(O)cc2)NC(=O)[C@H](C(C)C)NC(=O)[C@H](Cc2ccccc2)NC(=O)[C@@H]2CCCN2C(=O)[C@H](Cc2c[nH]cn2)NC1=O [SEQ ID NO: 38, Cyclo(Val-Tyr-Ile-His-Pro-Phe)] | 2500 |  | 
CC(C)[C@H](NC(=O)[C@H](CCCNC(=N)N)NC(=O)[C@@H](N)CCC(=O)O)C(=O)N[C@@H](Cc1ccc(O)cc1)C(=O)N[C@@H](Cc1ccccc1)C(=O)N[C@@H](Cc1c[nH]cn1)C(=O)N1CCC[C@H]1C(N)=O [SEQ ID NO: 64, Glu-Arg-Val-Tyr-Phe-His-Pro-NH2] |  | 1200 | 
CC[C@H](C)[C@H](NC(=O)[C@@H]1CCCN1C(=O)[C@H](Cc1c[nH]cn1)NC(=O)[C@@H](NC(=O)[C@@H](NC(=O)[C@@H](NC(=O)[C@H](CCCNC(=N)N)NC(=O)CNC)C(C)C)[C@@H](C)CC)C(C)C)C(=O)O [SEQ ID NO: 3, Sar-Arg-Val-Ile-Val-His-Pro-Ile-OH] | 120 |  | 
C=CCOc1ccc(C[C@H](NC(=O)[C@@H](NC(=O)[C@H](CCCNC(=N)N)NC(=O)CNC)C(C)C)C(=O)N[C@H](C(=O)N[C@@H](Cc2c[nH]cn2)C(=O)N2CCC[C@H]2C(=O)N[C@H](C)C(=O)O)[C@@H](C)CC)cc1 [SEQ ID NO: 76, Sar-Arg-Val-JJJ-Ile-His-Pro-D-Ala-OH] |  | 1600 | 
CC[C@H](C)[C@H](NC(=O)[C@H](Cc1cc(Br)c(O)c(Br)c1)NC(=O)[C@@H](NC(=O)[C@H](CCCNC(=N)N)NC(=O)CNC)C(C)C)C(=O)N[C@@H](Cc1c[nH]cn1)C(=O)N1CCC[C@H]1C(=O)N[C@H](C)C(=O)O [SEQ ID NO: 74, Sar-Arg-Val-HHH-Ile-His-Pro-D-Ala-OH] |  | 250 | 
CC[C@H](C)[C@H](NC(=O)[C@H](Cc1ccc(O)c(O)c1)NC(=O)[C@@H](NC(=O)[C@H](CCCNC(=N)N)NC(=O)CNC)C(C)C)C(=O)N[C@@H](Cc1c[nH]cn1)C(=O)N1CCC[C@H]1C(=O)N[C@H](C)C(=O)O [SEQ ID NO: 67, Sar-Arg-Val-AAA-Ile-His-Pro-D-Ala-OH] | 63 |  | 
CNCC(=O)N[C@@H](CCCNC(=N)N)C(=O)N[C@H](C(=O)N[C@@H](Cc1ccc(O)cc1)C(=O)N[C@@H](Cc1ccccc1)C(=O)N[C@@H](Cc1c[nH]cn1)C(=O)N1CCC[C@H]1C(=O)N[C@@H](C)C(=O)O)C(C)C [SEQ ID NO: 21, Sar-Arg-Val-Tyr-Phe-His-Pro-Ala-OH] | 13 |  | 
CNCC(=O)N[C@@H](CCCNC(=N)N)C(=O)N[C@H](C(=O)N[C@@H](Cc1ccc(O)cc1)C(=O)N[C@H](C(=O)N[C@@H](Cc1c[nH]cn1)C(=O)N1CCC[C@H]1C(=O)N[C@H](C)C(=O)O)[C@@H](C)OC)C(C)C [SEQ ID NO: 84, Sar-Arg-Val-Tyr-OMTh-His-Pro-D-Ala-OH] | 16 |  | 
CC(C)[C@H](NC(=O)[C@H](CCCNC(=N)N)NC(=O)[C@H](N)CCC(=O)O)C(=O)N[C@@H](Cc1ccc(O)cc1)C(=O)N[C@@H](Cc1ccc(O)cc1)C(=O)N[C@@H](Cc1c[nH]cn1)C(=O)N1CCC[C@H]1C(N)=O [SEQ ID NO: 60, D-Glu-Arg-Val-Tyr-Tyr-His-Pro-NH2] | 180 |  | 
CC[C@H](C)[C@@H]1NC(=O)[C@H](Cc2ccc(O)cc2)NC(=O)[C@H](C(C)C)NC(=O)[C@H](Cc2ccccc2)NC(=O)[C@@H]2CCCN2C(=O)[C@H](Cc2c[nH]cn2)NC(=O)[C@H]([C@@H](C)CC)NC(=O)[C@H](Cc2ccc(O)cc2)NC(=O)[C@H](C(C)C)NC(=O)[C@H](Cc2ccccc2)NC(=O)[C@@H]2CCCN2C(=O)[C@H](Cc2c[nH]cn2)NC(=O)[C@H]([C@@H](C)CC)NC(=O)[C@H](Cc2ccc(O)cc2)NC(=O)[C@H](C(C)C)NC(=O)[C@H](Cc2ccccc2)NC(=O)[C@@H]2CCCN2C(=O)[C@H](Cc2c[nH]cn2)NC1=O [SEQ ID NO: 37] | 1900 |  | 
CC[C@H](C)[C@H](NC(=O)[C@H](Cc1ccc(OC)cc1)NC(=O)[C@@H](NC(=O)[C@H](CCCNC(=N)N)NC(=O)CNC)C(C)C)C(=O)N[C@@H](Cc1c[nH]cn1)C(=O)N1CCC[C@H]1C(=O)N[C@@H](C)C(=O)O [SEQ ID NO: 29, Sar-Arg-Val-OMTyr-Ile-His-Pro-Ala-OH] | 200 |  | 
CN[C@@H](CCC(=O)O)C(=O)N[C@@H](CCCNC(=N)N)C(=O)N[C@H](C(=O)N[C@@H](Cc1ccc(O)cc1)C(=O)N[C@@H](Cc1ccccc1)C(=O)N[C@@H](Cc1c[nH]cn1)C(=O)N1CCC[C@H]1C(N)=O)C(C)C [SEQ ID NO: 66, N-Me-Glu-Arg-Val-Tyr-Phe-His-Pro-NH2] | 10000 |  | 
CNCC(=O)N[C@@H](CCCNC(=N)N)C(=O)N[C@H](C(=O)N[C@@H](Cc1ccc(O)cc1)C(=O)N[C@@H](CCCNC(=N)N)C(=O)N[C@@H](Cc1c[nH]cn1)C(=O)N1CCC[C@H]1C(=O)N[C@@H](C)C(=O)O)C(C)C [SEQ ID NO: 24, Sar-Arg-Val-Tyr-Arg-His-Pro-Ala-OH] | 63 |  | 
CC[C@H](C)[C@H](NC(=O)[C@H](Cc1ccc(F)cc1)NC(=O)[C@@H](NC(=O)[C@H](CCCNC(=N)N)NC(=O)CNC)C(C)C)C(=O)N[C@@H](Cc1c[nH]cn1)C(=O)N1CCC[C@H]1C(=O)N[C@H](C)C(=O)O [SEQ ID NO: 70, Sar-Arg-Val-DDD-Ile-His-Pro-D-Ala-OH] | 79 | 160 | 
CC[C@H](C)[C@H](NC(=O)[C@H](Cc1ccc(O)cc1)NC(=O)[C@@H](NC(=O)[C@H](CCCNC(=N)N)NC(=O)[C@H](C)NC)C(C)C)C(=O)N[C@@H](Cc1c[nH]cn1)C(=O)N1CCC[C@H]1C(=O)N[C@@H](C)C(=O)O [SEQ ID NO: 34] | 32 | 25 | 
CC[C@H](C)[C@H](NC(=O)[C@H](Cc1ccc(O)c(Cl)c1)NC(=O)[C@@H](NC(=O)[C@H](CCCNC(=N)N)NC(=O)CNC)C(C)C)C(=O)N[C@@H](Cc1c[nH]cn1)C(=O)N1CCC[C@H]1C(=O)N[C@H](C)C(=O)O [SEQ ID NO: 75, Sar-Arg-Val-III-Ile-His-Pro-D-Ala-OH] | 13 | 25 | 
CC[C@H](C)[C@H](NC(=O)[C@H](Cc1cc(I)c(O)c(I)c1)NC(=O)[C@@H](NC(=O)[C@H](CCCNC(=N)N)NC(=O)CNC)C(C)C)C(=O)N[C@@H](Cc1c[nH]cn1)C(=O)N1CCC[C@H]1C(=O)N[C@H](C)C(=O)O [SEQ ID NO: 85, Sar-Arg-Val-OOO-Ile-His-Pro-D-Ala-OH] | 500 | 1600 | 
CNCC(=O)N[C@@H](CCCNC(=N)N)C(=O)N[C@H](C(=O)N[C@@H](Cc1ccc(O)cc1)C(=O)N[C@H](C(=O)N[C@@H](Cc1c[nH]cn1)C(=O)N1CCC[C@H]1C(=O)N[C@@H](C)C(=O)O)[C@@H](C)OC)C(C)C [SEQ ID NO: 30, Sar-Arg-Val-Tyr-OMTh-His-Pro-Ala-OH] | 8.2 | 9.2 | 

Source: patent publication US20210324005A1, “Beta-Arrestin Effectors and Compositions and Methods of Use Thereof” (Trevena, Inc., priority 2020, published 2021)
